In US20240158639A1, “PROCESS FOR PREPARING INDOCYANINE GREEN” (ICROM Srl, priority 2021, published 2024):

Test: Solubility in water, checked by filtration on a 0.45 μm syringe filter
Conditions: obtained without NaI (example 3), dry isolated powder after crystallization, 20-25° C.; not soluble at 5 mg/ml or 2.5 mg/ml

In the case of “1H-benz[e]indole, 2-[7-[1,3-dihydro-1,1-dimethyl-3-(4-sulfobutyl)-2H-benz[e]indol-2-ylidene]-1,3,5-heptatrienyl]-1,1-dimethyl-3-(4-sulfobutyl) hydroxide, inner salt, sodium salt [compound of formula (I)]”, the solubility in water is reported as < 2500 µg/mL.
